Assay results from US5002959A, “BU-4146T antibiotic” (Bristol-Myers Squibb Company, priority 1989, dated 1991).

What was measured:
melanotic melanoma B16 = assay: In vivo antitumor activity against B16 melanoma (ip); conditions: Q4D × 3
[1] = system: lymphocytic leukemia P388; assay: In vivo antitumor activity against P388 leukemia (ip)

C/C(=C\C(C)C(=O)CC(O)CC1CC(=O)NC(=O)C1)C1OC(=O)/C=C/CC/C=C/C=C\C1C (stereo not drawn) [BU-4146T]
Body weight change on day 4 (melanotic melanoma B16; 0.25 mg/kg/day ip): +1.0 g
MST (median survival times) (melanotic melanoma B16; 0.25 mg/kg/day ip): 17.0 days
T/C (melanotic melanoma B16; 0.25 mg/kg/day ip): 117%
Body weight change on day 4 (melanotic melanoma B16; 1 mg/kg/day ip): +0.3 g
MST (median survival times) (melanotic melanoma B16; 1 mg/kg/day ip): 17.5 days
T/C (melanotic melanoma B16; 1 mg/kg/day ip): 121%
Body weight change on day 4 (melanotic melanoma B16; 2 mg/kg/day ip): +0.8 g
MST (median survival times) (melanotic melanoma B16; 2 mg/kg/day ip): 21.0 days
Body weight change on day 4 (melanotic melanoma B16; 4 mg/kg/day ip): -1.3 g
MST (median survival times) (melanotic melanoma B16; 4 mg/kg/day ip): 12.5 days
T/C (melanotic melanoma B16; 4 mg/kg/day ip): 86%
Body weight change on day 4 ([1]; 0.063 mg/kg/day ip, Q1D × 9): +1.5 g
MST (median survival time) ([1]; 0.063 mg/kg/day ip, Q1D × 9): 11.0 days
T/C ([1]; 0.063 mg/kg/day ip, Q1D × 9): 110%
Body weight change on day 4 ([1]; 0.13 mg/kg/day ip, Q1D × 9): 0.8 g
MST (median survival time) ([1]; 0.13 mg/kg/day ip, Q1D × 9): 12.0 days
T/C ([1]; 0.13 mg/kg/day ip, Q1D × 9): 120%
Body weight change on day 4 ([1]; 0.25 mg/kg/day ip, Q1D × 9): +0.8 g
MST (median survival time) ([1]; 0.25 mg/kg/day ip, Q1D × 9): 14.0 days
Body weight change on day 4 ([1]; 0.25 mg/kg/day ip, Q4D × 3): +0.5 g
MST (median survival time) ([1]; 0.25 mg/kg/day ip, Q4D × 3): 11.5 days
T/C ([1]; 0.25 mg/kg/day ip, Q4D × 3): 105%
Body weight change on day 4 ([1]; 0.5 mg/kg/day ip, Q1D × 9): +0.5 g
MST (median survival time) ([1]; 0.5 mg/kg/day ip, Q1D × 9): 13.5 days
Body weight change on day 4 ([1]; 1 mg/kg/day ip, Q1D × 1): +0.8 g
MST (median survival time) ([1]; 1 mg/kg/day ip, Q1D × 1): 12.5 days
T/C ([1]; 1 mg/kg/day ip, Q1D × 1): 114%
Body weight change on day 4 ([1]; 1 mg/kg/day ip, Q1D × 9): +0.5 g
MST (median survival time) ([1]; 1 mg/kg/day ip, Q1D × 9): 14.5 days
T/C ([1]; 1 mg/kg/day ip, Q1D × 9): 145%
Body weight change on day 4 ([1]; 1 mg/kg/day ip, Q4D × 3): +0.8 g
MST (median survival time) ([1]; 1 mg/kg/day ip, Q4D × 3): 15.0 days
Body weight change on day 4 ([1]; 2 mg/kg/day ip, Q1D × 1): +0.3 g
MST (median survival time) ([1]; 2 mg/kg/day ip, Q1D × 1): 13.0 days
T/C ([1]; 2 mg/kg/day ip, Q1D × 1): 118%
Body weight change on day 4 ([1]; 2 mg/kg/day ip, Q4D × 3): 0.0 g
MST (median survival time) ([1]; 2 mg/kg/day ip, Q4D × 3): 15.0 days
Body weight change on day 4 ([1]; 4 mg/kg/day ip, Q1D × 1): -1.5 g
MST (median survival time) ([1]; 4 mg/kg/day ip, Q1D × 1): 15.0 days
Body weight change on day 4 ([1]; 4 mg/kg/day ip, Q4D × 3): -1.0 g
MST (median survival time) ([1]; 4 mg/kg/day ip, Q4D × 3): 12.0 days
T/C ([1]; 4 mg/kg/day ip, Q4D × 3): 109%
Body weight change on day 4 ([1]; 8 mg/kg/day ip, Q1D × 1): -1.5 g
MST (median survival time) ([1]; 8 mg/kg/day ip, Q1D × 1): 8.0 days
T/C ([1]; 8 mg/kg/day ip, Q1D × 1): 73%
activity in terms of minimum effective dose ([1]; Q1D × 9 schedule, P388, versus mitomycin C): as active as mitomycin C

CO[C@@]12[C@H](COC(N)=O)C3=C(C(=O)C(C)=C(N)C3=O)N1C[C@@H]1N[C@@H]12 [Mitomycin C, reference compound]
MST (median survival times) (melanotic melanoma B16; 0.25 mg/kg/day ip): 14.5 days
T/C (melanotic melanoma B16; 0.25 mg/kg/day ip): 100%
Body weight change on day 4 (melanotic melanoma B16; 1 mg/kg/day ip): +0.8 g
MST (median survival times) (melanotic melanoma B16; 1 mg/kg/day ip): 20.0 days
Body weight change on day 4 ([1]; 0.063 mg/kg/day ip, Q1D × 9): +0.8 g
Body weight change on day 4 ([1]; 0.25 mg/kg/day ip, Q1D × 9): +1.0 g
Body weight change on day 4 ([1]; 0.5 mg/kg/day ip, Q1D × 9): 0.0 g
Body weight change on day 4 ([1]; 1 mg/kg/day ip, Q4D × 3): +0.8 g
Body weight change on day 4 ([1]; 2 mg/kg/day ip, Q4D × 3): 0.0 g
Body weight change on day 4 ([1]; 4 mg/kg/day ip, Q4D × 3): 0.0 g
MST (median survival time) ([1]; 4 mg/kg/day ip, Q4D × 3): 20.0 days
